# Assay results from PubChem BioAssay AID588590 (National Center for Advancing Translational Sciences (NCATS), 2011).
# Chains of the proteins cited; added tags and fusions are not shown.
# UniProt Q9UNA4, whole entry: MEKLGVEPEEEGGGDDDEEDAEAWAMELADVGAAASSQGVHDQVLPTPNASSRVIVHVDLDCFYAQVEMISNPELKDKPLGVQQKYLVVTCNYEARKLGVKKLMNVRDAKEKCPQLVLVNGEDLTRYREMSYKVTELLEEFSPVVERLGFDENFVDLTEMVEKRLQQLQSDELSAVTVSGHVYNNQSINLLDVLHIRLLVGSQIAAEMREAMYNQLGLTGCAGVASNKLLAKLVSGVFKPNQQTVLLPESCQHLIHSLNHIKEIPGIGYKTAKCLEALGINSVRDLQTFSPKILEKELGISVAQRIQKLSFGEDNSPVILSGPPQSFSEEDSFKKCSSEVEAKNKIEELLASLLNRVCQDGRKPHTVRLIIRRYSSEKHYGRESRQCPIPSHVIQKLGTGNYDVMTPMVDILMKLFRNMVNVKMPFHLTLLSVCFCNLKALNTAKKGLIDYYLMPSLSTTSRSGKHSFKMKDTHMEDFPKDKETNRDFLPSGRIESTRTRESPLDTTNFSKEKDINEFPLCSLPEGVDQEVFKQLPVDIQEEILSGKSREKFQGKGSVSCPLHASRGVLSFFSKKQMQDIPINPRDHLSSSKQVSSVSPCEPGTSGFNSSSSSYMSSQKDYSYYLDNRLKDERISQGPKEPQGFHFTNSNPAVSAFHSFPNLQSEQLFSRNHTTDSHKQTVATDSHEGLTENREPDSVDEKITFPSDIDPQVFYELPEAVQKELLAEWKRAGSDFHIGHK
# This is a selection; strong and weak results do not stand in their true shares. Results filed as inconclusive are left out. The source made the active and inactive calls. The call rests on the fitted dose curve; in most records, active means well fitted inhibition curve with a large enough effect; inconclusive means small, poorly fitted or top-dose-only effect, or another doubt; inactive means no such curve, though single readings can be large or run the other way.
# Target: DNA polymerase iota (Homo sapiens) (UniProt Q9UNA4)
# Experiment: qHTS for Inhibitors of Polymerase Iota
# Details: Pol iota fluorescent replication assay, 10 min; series mostly up to 115 µM; activity, negative = inhibition: at the top concentration
# Potency means the concentration at half of the fitted maximal effect.
Structure (SMILES),"activity, negative = inhibition",Potency
Nc1ccc2c(ccc3cccnc32)n1.O=[N+]([O-])c1cc([N+](=O)[O-])c(O)c([N+](=O)[O-])c1,inactive: 54.7%,
CCOC(=O)c1ccc(NP(C)(=O)Oc2ccc(Cl)cc2)cc1 (stereo unspecified),inactive: 18%,
CP(=O)(OC12CC3CC(CC(C3)C1)C2)OC12CC3CC(CC(C3)C1)C2,inactive: 42.6%,
COc1ccccc1OP(C)(=O)Nc1ccccc1Br (stereo unspecified),inactive: 93.9%,
CC(C)(C)c1ccc(OP(C)(=O)O)cc1,inactive: -8.67% [at 58.9 µM],
CP(=O)(Nc1ccc(Cl)cc1)Oc1ccc(F)cc1 (stereo unspecified),inactive: -13.4%,
CN(C)C(=O)c1c([N+](=O)[O-])cc([N+](=O)[O-])cc1[N+](=O)[O-],inactive: -12%,
CCN(CC)CC(O)COC(=O)C(O)(c1ccccc1)C1CCCCC1 (stereo unspecified),inactive: 6.86%,
COc1ccc(OP(C)(=O)Nc2ccc(Br)cc2)cc1 (stereo unspecified),inactive: 17.7%,
N#[O+].[C-]#N.[C-]#N.[C-]#N.[C-]#N.[C-]#N.[Fe+2].[Na+].[Na+],inactive: -5.91% [at 58.9 µM],
COc1ccccc1OP(C)(=O)Nc1c(C)n(C)n(-c2ccccc2)c1=O (stereo unspecified),inactive: 3.65%,
O=C(OCCCN1CCCC1)C(O)(c1ccccc1)C1CCCCC1 (stereo unspecified),inactive: 83%,
CP(=O)(Oc1ccccc1)N1CCOC1=O (stereo unspecified),inactive: 1.7%,
CCc1ccc(OP(C)(=O)Nc2cccnc2)cc1 (stereo unspecified),inactive: 120%,
Cc1c(NP(C)(=O)Oc2ccc(C(C)C)cc2)c(=O)n(-c2ccccc2)n1C (stereo unspecified),inactive: 12.3%,
CP(=O)(Nc1ccccn1)Oc1ccccc1 (stereo unspecified),inactive: -1.22%,
COc1ccccc1OP(C)(=O)Nc1ccc(C)cc1C (stereo unspecified),inactive: 12.3%,
CCc1ccc(OP(C)(=O)O)cc1,inactive: -18%,
COc1ccccc1OP(C)(=O)Nc1ccc(Br)cc1 (stereo unspecified),inactive: -12.9%,
CN(C)CCOC(=O)C(O)(c1ccccc1)C1CCCC1 (stereo unspecified),inactive: 12.8%,
CP(=O)(Nc1ccc(Cl)cc1Cl)Oc1ccccc1 (stereo unspecified),inactive: -2.85%,

Structure (SMILES),"activity, negative = inhibition",Potency
CCCCCCCCCCCCCCCC1C[N+](C)(C)CCOP(C)(=O)O1 (stereo unspecified),inactive: -10.5%,
CP(=O)(OCCOc1ccccc1)OCCOc1ccccc1,inactive: 5.19%,
Cc1cc(C)cc(OP(C)(=O)Nc2cccc(C(F)(F)F)c2)c1 (stereo unspecified),inactive: 27.6%,
COc1ccccc1OP(C)(=O)Nc1ccc(C)c(C)c1 (stereo unspecified),inactive: 3.69%,
COc1ccc(OP(C)(=O)Nc2ccccc2Br)cc1 (stereo unspecified),inactive: 4.38%,
Cc1c([N+](=O)[O-])cc([N+](=O)[O-])c(Br)c1[N+](=O)[O-],inactive: 68.6%,
CCN(CC)CCCOC(=O)C(O)(c1ccccc1)C1CCCCC1 (stereo unspecified),inactive: 14.6%,
CP(=O)(Nc1ccccc1)Oc1ccc(F)cc1 (stereo unspecified),inactive: 21.4%,
CCCCCOc1ccc(NP(C)(=O)Oc2ccc(Cl)cc2Cl)cc1 (stereo unspecified),inactive: -19.7%,
CCOC(=O)c1ccc(NP(C)(=O)Oc2ccc(F)cc2)cc1 (stereo unspecified),inactive: 2.32%,
COc1ccc(OP(C)(=O)Nc2ccc(SC(F)(F)F)cc2)cc1 (stereo unspecified),inactive: 100%,
CP(=O)(Nc1ccccc1F)Oc1ccccc1 (stereo unspecified),inactive: 13.1%,
CC(C)c1ccc(OP(C)(=O)Nc2ccc(SC(F)(F)F)cc2)cc1 (stereo unspecified),inactive: -5.58%,
CP(=O)(Nc1ccc2c(c1)OCCO2)Oc1ccccc1 (stereo unspecified),inactive: 2.81%,
Cc1ccccc1NP(C)(=O)Nc1ccccc1C,inactive: 4.72%,
CP(=O)(Nc1ccc(SC(F)(F)F)cc1)Oc1ccc(F)cc1 (stereo unspecified),inactive: 8.54%,
CCOP(C)(=S)SCC(=O)NC(C)(CC)C(=O)O (stereo unspecified),inactive: -13.1%,
O=[N+]([O-])c1ccc(OP2(=O)COCCO2)cc1 (stereo unspecified),inactive: -3.03%,
Cc1cc(-c2cccc3ccccc23)c(C)cn1.O=[N+]([O-])c1cc([N+](=O)[O-])c(O)c([N+](=O)[O-])c1,inactive: 2.49%,
Cc1c(C(c2ccc3c(c2)OCO3)c2c(C)n(C)n(-c3ccccc3)c2=O)c(=O)n(-c2ccccc2)n1C.O=[N+]([O-])c1cc([N+](=O)[O-])c(O)c([N+](=O)[O-])c1,inactive: -10.3%,
COc1ccc(OP(C)(=O)Nc2cccc(Br)c2)cc1 (stereo unspecified),inactive: 34.9%,

Structure (SMILES),"activity, negative = inhibition",Potency
CN(C)CCOC(=O)C(O)(c1ccccc1)C1CCCCC1 (stereo unspecified),inactive: -9.15%,
COc1ccc(NP(C)(=O)Oc2ccccc2OC)cc1 (stereo unspecified),inactive: 65.8%,
CN1CCCCC1COC(=O)C1(O)c2ccccc2CCc2ccccc21 (stereo unspecified),inactive: 3.46%,
CCCOc1ccc(NP(C)(=O)Oc2ccc(Cl)cc2)cc1 (stereo unspecified),inactive: 70.8%,
CP(=O)(Nc1ccc(SC(F)(F)F)cc1)Oc1ccccc1 (stereo unspecified),inactive: 141%,
CC1=C2N=C(C=C3N=C(C(C)=C4[N-][C@@](C)([C@@H]5N=C1[C@](C)(CCC(=O)NC[C@@H](C)OP(=O)([O-])O[C@H]1[C@@H](O)[C@@H](n6cnc7cc(C)c(C)cc76)O[C@@H]1CO)[C@H]5CC(N)=O)[C@@](C)(CC(N)=O)[C@@H]4CCC(N)=O)[C@@](C)(CC(N)=O)[C@@H]3CCC(N)=O)C(C)(C)[C@@H]2CCC(N)=O.[C-]#N.[Co+3],,active: 20 µM
O=[N+]([O-])c1cc([N+](=O)[O-])c(Nc2nnnn2CCO)c([N+](=O)[O-])c1,inactive: -9.56%,
O=[N+]([O-])c1cc([N+](=O)[O-])c(-c2cnn(-c3ccccc3)c2)c([N+](=O)[O-])c1,inactive: 43.4%,
Cc1nc2ccc3ccccc3c2s1.O=[N+]([O-])c1cc([N+](=O)[O-])c(O)c([N+](=O)[O-])c1,inactive: 13.6%,
O=[N+]([O-])c1cc([N+](=O)[O-])c(-n2nnc3ccccc32)c([N+](=O)[O-])c1,inactive: 1.66%,
Cc1ccc(C)c(NP(C)(=O)Oc2ccccc2)c1 (stereo unspecified),inactive: 2.01%,
Cc1cc(C)cc(OP(C)(=O)Nc2ccccn2)c1 (stereo unspecified),inactive: 13.8%,
CP(=O)(Nc1cccc(Br)c1)Oc1ccccc1 (stereo unspecified),inactive: 12.2%,
COc1ccccc1OP(C)(=O)Nc1cccc(Br)c1 (stereo unspecified),inactive: -28.7%,
CCOC(=O)c1ccc(NP(C)(=O)Oc2cc(C)cc(C)c2)cc1 (stereo unspecified),inactive: 24.1%,
Cc1cc(C)cc(OP(C)(=O)Nc2ccc(C)cc2C)c1 (stereo unspecified),inactive: -21.5%,
CC1=NCCc2c1[nH]c1ccccc21.O=[N+]([O-])c1cc([N+](=O)[O-])c(O)c([N+](=O)[O-])c1,inactive: 1.93%,
COc1ccccc1OP(C)(=O)Nc1ccc(C)cc1 (stereo unspecified),inactive: 8.29%,
Cc1ccc(NP(C)(=O)Oc2ccccc2)c(C)c1 (stereo unspecified),inactive: -13.4%,
CCOC(=O)c1ccc(NP(C)(=O)Oc2ccccc2)cc1 (stereo unspecified),inactive: 16.9%,
Cc1cc(C)cc(OP(C)(N)=O)c1 (stereo unspecified),inactive: 37.6%,

Structure (SMILES),"activity, negative = inhibition",Potency
COc1ccccc1OP(C)(=O)Nc1cc(Cl)ccc1C (stereo unspecified),inactive: -5.76%,
O=[N+]([O-])c1ccc2c(c1)C=Nc1ccccc1O2,inactive: -10.7%,
CC(C)(C)c1ccc(OP(C)(=O)Nc2ccc(SC(F)(F)F)cc2)cc1 (stereo unspecified),inactive: -0.817%,
Cc1cccc(C)c1OP(C)(N)=O (stereo unspecified),inactive: 133%,
CCN(CC)CCCOC(=O)C(O)(c1ccccc1)c1ccccc1,inactive: -12.2%,
CCOC(=O)c1ccc(NP(C)(=O)Oc2ccc(OC)cc2)cc1 (stereo unspecified),inactive: 15.8%,
O=[N+]([O-])c1cc([N+](=O)[O-])c(O)c([N+](=O)[O-])c1.c1ccc(Oc2ccncc2)cc1,inactive: 34.9%,
CCOP(C)(=S)SCC(=O)NC(C)C(=O)O (stereo unspecified),inactive: -20.9%,
CP(=O)(Nc1ccccn1)Oc1ccc(Cl)cc1 (stereo unspecified),inactive: 17.6%,
Cc1cccc(C)c1OP(C)(=O)Nc1ccc(SC(F)(F)F)cc1 (stereo unspecified),inactive: -7.48%,
CP(=O)(Nc1ccc(SC(F)(F)F)cc1)Oc1ccc(Cl)cc1 (stereo unspecified),inactive: -2.57%,
CP(=O)(Oc1ccccc1)OC(c1ccccc1)C(F)(F)F (stereo unspecified),inactive: 36.1%,
CP(=O)(NC(=O)Nc1ccccc1)Oc1ccccc1 (stereo unspecified),inactive: -21.8%,
CCc1ccc(OP(C)(=O)N2CCN(c3ccc([N+](=O)[O-])cc3)CC2)cc1 (stereo unspecified),inactive: 6.87%,
Cc1cc(C)cc(OP(C)(=O)Nc2ccc(SC(F)(F)F)cc2)c1 (stereo unspecified),inactive: 101%,
CP(=S)(Nn1cnnc1)Oc1ccccc1 (stereo unspecified),inactive: 7.55%,
CP(=O)(Nc1ccccc1Br)Oc1ccccc1 (stereo unspecified),inactive: 144%,
COc1ccccc1OP(C)(=O)Nc1ccccc1 (stereo unspecified),inactive: 136%,
